Measured affinities in a library of Ab-14 light chain variants

Binding partner: SARS-CoV-2 spike HR2 peptide, sequence PDVDLGDISGINAS.

Ab-14 is the parent antibody, in scFv form: VH, then the linker GGGGSGGGGSGGGGS, then VL. The heavy chain is unchanged in all variants.
VH: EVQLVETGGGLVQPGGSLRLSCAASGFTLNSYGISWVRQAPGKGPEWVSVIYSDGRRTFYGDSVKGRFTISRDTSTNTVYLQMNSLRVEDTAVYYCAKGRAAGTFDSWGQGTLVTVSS
VL: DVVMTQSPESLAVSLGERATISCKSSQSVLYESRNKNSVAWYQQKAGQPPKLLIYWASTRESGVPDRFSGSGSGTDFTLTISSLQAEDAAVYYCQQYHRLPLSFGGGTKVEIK

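Library AAYL50 holds single substitutions and randomly drawn double and triple substitutions in the CDRs. The assay is AlphaSeq: two haploid yeast populations carry antibody and antigen on their surface. Mating (16 h, 30 °C) was followed by selection of diploids and sequencing of their barcodes. A regression on co-assayed BCL2-family reference pairs converts the normalised counts of each replicate to an apparent Kd. Mating was done three times.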

Variants are written as CDR1, CDR2 and CDR3 of the light chain (limits as in the source). Parent: KSSQSVLYESRNKNSVA, WASTRES, QQYHRLPLS. This list gathers variants with a substitution at Y97 (VL, numbered from residue 1). Numbers give log10(Kd / nM), so 0 is 1 nM and 3 is 1 µM. Smaller is tighter. A mean of the replicates is given; it leaves out those without a signal. "nd" marks a missing value. The strain was present, yet no cells mated with the target were sequenced in that replicate, which points to weak or no binding. Entries are sorted by rising average, undetected variants last. Background: pairings of library AAYL50 with three empty control strains gave a value in 18% of cases (median 4.19, 5th percentile 2.99). Values in that range, when seen in few replicates, are hard to tell from nonspecific mating.

* KSSWSVLYESRNKNSVA | WASTRES | QQSHRLPLS = 0.84, 0.98, 0.96 (mean 0.93)
* KWSQSVLYESRNKNSVA | WASTRES | QQGYRLPLS = 0.68, 1.28, 0.93 (mean 0.96)
* KSSQSVIYESRNKNSVA | WASTRES | QQRHRLPLC = 0.95, 1.11, 0.97 (mean 1.01)
* KSSQSVLYESHNKNSVA | WASTRES | QQLHRLCLS = 0.83, 1.21, 1.03 (mean 1.02)
* KLSQSVLYESRWKNSVA | WASTRES | QQEHRLPLS = 1.00, 1.18, 1.06 (mean 1.08)
* KSSQSVLLESCNKNSVA | WASTRES | QQRHRLPLS = 0.93, 1.08, 1.43 (mean 1.15)
* KSSQSVLYESRNKNSVA | WASTRES | QQGHGLPLW = 1.07, 1.16, 1.28 (mean 1.17)
* KSSQSVLYEERQKNSVA | WASTRES | QQLHRLPLS = 1.12, 1.26, 1.43 (mean 1.27)
* TSSQSVLYESRNKNSVA | WASTRES | QQGHRLPLS = 1.93, 1.84, 1.73 (mean 1.83)
* KSSQSVLYESRNWNSVA | WASTRES | QQLHRLRLS = 2.15, 1.99, 2.17 (mean 2.11)
* KSSQSVLYESRNKNSVA | WASTRVS | QQAHRHPLS = 2.42, 1.80, 2.19 (mean 2.14)
* KSSQSVLYESRNKNSVA | WASTRES | DQSHRLPLS = nd, 2.14, 2.67 (mean 2.40)
* KSSQSVLYESRNPNCVA | WASTRES | QQAHRLPLS = 3.08, 1.82, 2.66 (mean 2.52)
* KSSQSMLYESRNKNSVA | WASTRES | SQAHRLPLS = 2.96, 2.40, 2.52 (mean 2.63)
* KSSQSVLHESRNKNSVA | WASTRES | QQWHRLPKS = 2.72, 2.63, 2.57 (mean 2.64)
* KSSQSVLYESREKNSVA | WTSTRES | QQMHRLPLS = 2.66, 2.48, 3.71 (mean 2.95)
* KSSQSKHYESRNKNSVA | WASTRES | QQNHRLPLS = 2.77, 2.65, 5.14 (mean 3.52)
* KSSQSVLYESRNKNSVA | HASTRES | QQCHRRPLS = 4.39, 3.61, 3.46 (mean 3.82)
* KSSQSVLYESRNKNSVA | WASTRES | QQKHIAPLS = nd, 3.94, nd
* KDSQSVLYYSRNKNSVA | WASTRES | QQMHRLPLS = nd, nd, 4.44
* KSSQSVLYESRNKNSVK | WAFTRES | QQMHRLPLS = nd, nd, 4.85
* KSSQSVLYESRNKNSVA | WASTRPP | QQDHRLPLS = 4.08, 5.00, 5.89 (mean 4.99)
* KSSQSVLYESRNKNSAA | WASTRES | QQFHRLPLS = nd, nd, 5.21
* KSSQSVLYESRIKNSVA | MASTRES | QQFHRLPLS = 5.31, nd, nd
* KSSQSVLYESRNKNSVA | WASTRES | QQTERGPLS = 7.21, 4.21, 5.27 (mean 5.57)
* KSSQSVLYESRNKNSVA | WASTVES | QQGHRLPLS = nd, nd, nd
* KSSQSVKYESRNKNSVA | WASTRES | QQKQRLPLS = nd, nd, nd
* KSSQSVLYESRNMNSVA | WASTRES | QQLLRLPLS = nd, nd, nd
* KSSQSVLYESRNCNSVA | WASCRES | QQHHRLPLS = nd, nd, nd
* KSSQSVLYESRNKNSVA | WANTRES | QQFHRLPLS = nd, nd, nd
* KSSQSILYESRPKNSVA | WASTRES | QQWHRLPLS = nd, nd, nd
* KSSQSYLYESRNKNSVA | WCSTRES | QQPHRLPLS = nd, nd, nd
* KSSQSVLYESRNKNSVA | WASTYES | QQAHRLPLC = nd, nd, nd
* KSSQSVLYESRNKHSTA | WASTRES | QQVHRLPLS = nd, nd, nd
* KSSQSVLYEKRNKNSVA | WASTRES | QQKHMLPLS = nd, nd, nd
* KSSPSVLYESRNKNWVA | WASTRES | QQPHRLPLS = nd, nd, nd
* KSSQSHLYESRNENSVA | WASTRES | QQRHRLPLS = nd, nd, nd
* KSSQSVLYESRNKHSVA | WASTRES | QQRRRLPLS = nd, nd, nd
* KSSQSSLYESRNKNSVA | WANTRES | QQAHRLPLS = nd, nd, nd
* DSSQSVLYESRNKNSVA | WASTLES | QQSHRLPLS = nd, nd, nd
* KSSQSVLYESRNFNSVA | LASTRES | QQPHRLPLS = nd, nd, nd
* KSSQSVLYEIRNKNSVA | WASTRES | QQWHRLPLP = nd, nd, nd
* KSSQSVLYESRNKNSVA | WASTREI | QQCHGLPLS = nd, nd, nd
* KSSQSVLYESRNKNSVA | WASTRES | QQLWRLPLS = nd, nd, nd
* KSSQSVLYEHRNKNSVA | WASTRES | QMPHRLPLS = nd, nd, nd

Picked from the list: the 3 lowest averages where every replicate gave a value.

| CDR-L1 | CDR-L2 | CDR-L3 | log10 Kd, replicates | mean, log10 nM |
|---|---|---|---|---|
| KSSWSVLYESRNKNSVA | WASTRES | QQSHRLPLS | 0.84, 0.98, 0.96 | 0.93 |
| KWSQSVLYESRNKNSVA | WASTRES | QQGYRLPLS | 0.68, 1.28, 0.93 | 0.96 |
| KSSQSVIYESRNKNSVA | WASTRES | QQRHRLPLC | 0.95, 1.11, 0.97 | 1.01 |

Values reported by Engelhart et al. 2022, doi:10.1038/s41597-022-01779-4 (FLAb copy).